pIC50: −log10 of the molar value.

Amino acid sequences for entries named in this document (tags omitted). Residues count along the entry.
UniProt O75417, 1780-2590: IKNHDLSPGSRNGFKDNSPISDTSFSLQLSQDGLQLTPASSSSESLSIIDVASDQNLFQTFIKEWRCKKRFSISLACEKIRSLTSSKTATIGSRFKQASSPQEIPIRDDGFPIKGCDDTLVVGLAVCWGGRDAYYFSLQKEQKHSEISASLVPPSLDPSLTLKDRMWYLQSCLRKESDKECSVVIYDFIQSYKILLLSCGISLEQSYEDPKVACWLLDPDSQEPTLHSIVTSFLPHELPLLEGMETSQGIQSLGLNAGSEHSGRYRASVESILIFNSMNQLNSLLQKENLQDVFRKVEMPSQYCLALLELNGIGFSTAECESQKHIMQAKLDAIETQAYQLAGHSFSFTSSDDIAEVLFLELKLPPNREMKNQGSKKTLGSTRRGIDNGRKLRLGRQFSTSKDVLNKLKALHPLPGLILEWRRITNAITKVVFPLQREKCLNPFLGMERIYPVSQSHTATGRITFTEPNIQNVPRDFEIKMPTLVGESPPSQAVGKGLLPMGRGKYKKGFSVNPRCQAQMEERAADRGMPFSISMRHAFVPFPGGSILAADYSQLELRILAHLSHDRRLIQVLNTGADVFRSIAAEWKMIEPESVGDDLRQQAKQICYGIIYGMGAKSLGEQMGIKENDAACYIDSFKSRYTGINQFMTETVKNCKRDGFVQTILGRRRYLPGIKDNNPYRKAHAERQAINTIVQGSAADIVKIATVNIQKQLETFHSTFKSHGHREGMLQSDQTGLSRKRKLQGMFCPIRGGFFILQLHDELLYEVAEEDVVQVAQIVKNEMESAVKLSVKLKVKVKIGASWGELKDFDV

By pIC50 is commonly meant the negative decadic logarithm of the IC50, by convention in mol/L. A high value points to a small IC50.

For the test, the target named is isolated polymerase domain (I1780-V2590) of DNA polymerase theta (Polθ) (Homo sapiens (Human), UniProt O75417). Description: biochemical.

Compound `COc1ccc(Cl)c(F)c1Cn1c(-c2ccc(OCCC(C)C(=O)O)cc2Cl)nc2c(OC3(C)CC3)ncnc21` (racemic) [Example U57, 4-(3-chloro-4-(9-(3-chloro-2-fluoro-6-methoxybenzyl)-6-(1-methylcyclopropoxy)-9H-purin-8-yl)phenoxy)-2-methylbutanoic acid] showed a pIC50 of 8.50.

Compound `CCOc1ccc(Cl)cc1Cn1c(-c2ccc(OCCC(C)C(=O)O)cc2Cl)nc2c(OC3(C)CC3)ncnc21` (racemic) [Example U59, 4-(3-chloro-4-(9-(5-chloro-2-ethoxybenzyl)-6-(1-methylcyclopropoxy)-9H-purin-8-yl)phenoxy)-2-methylbutanoic acid] showed a pIC50 of 8.20.

Compound `CC(CCOc1ccc(-c2nc3c(OC4(C)CC4)ncnc3n2Cc2cc(Cl)ccc2OC(F)F)c(Cl)c1)C(=O)O` (racemic) [Example U60, 4-(3-chloro-4-(9-(5-chloro-2-(difluoromethoxy)benzyl)-6-(1-methylcyclopropoxy)-9H-purin-8-yl)phenoxy)-2-methylbutanoic acid] showed a pIC50 of 8.00.

As to `COc1c(F)cc(Cl)cc1Cn1c(-c2ccc(OCCC(C)C(=O)O)cc2Cl)nc2c(OC3(C)CC3)ncnc21` (racemic) [Example U61, 4-(3-chloro-4-(9-(5-chloro-3-fluoro-2-methoxybenzyl)-6-(1-methylcyclopropoxy)-9H-purin-8-yl)phenoxy)-2-methylbutanoic acid], the negative-log IC50 (pIC50) was 8.20.

For the compound `Cc1ccnc(Cn2c(-c3ccc(O[C@@H]4CC[C@@H](O)C4)cc3Cl)nc3c(OC4(C)CC4)ncnc32)c1` (relative stereo) [Example T330, rel-(1R,3R)-3-(3-chloro-4-(6-(1-methylcyclopropoxy)-9-((4-methylpyridin-2-yl)methyl)-9H-purin-8-yl)phenoxy)cyclopentan-1-ol], the negative logarithm of the IC50 (pIC50) was 8.20.

Compound `CC1(Oc2ncnc3c2nc(-c2ccc(OCCN4C[C@H]5CC[C@@H]4CN5)cc2Cl)n3Cc2ccccc2)CC1` (relative stereo) [Example T604, rel-(1R,4R)-2-(2-(4-(9-benzyl-6-(1-methylcyclopropoxy)-9H-purin-8-yl)-3-chlorophenoxy)ethyl)-2,5-diazabicyclo[2.2.2]octane] gave a pIC50 of 8.50.

The compound `CC(C)Oc1ccc2c(c1)nc(-c1ccc(OCCC3CCCN3C)cc1Cl)n2Cc1ccccc1` (single isomer, unassigned) [Example A8, 1-benzyl-2-(2-chloro-4-(2-(1-methylpyrrolidin-2-yl)ethoxy)phenyl)-5-isopropoxy-1H-benzo[d]imidazole] gave a negative-log IC50 (pIC50) of 8.70.

For the compound `CC(C)Oc1ccc2c(c1)nc(-c1ccc(OCCC3CCCN3C)cc1Cl)n2Cc1ccccc1` (single isomer, unassigned) [Example A9, 1-benzyl-2-(2-chloro-4-(2-(1-methylpyrrolidin-2-yl)ethoxy)phenyl)-5-isopropoxy-1H-benzo[d]imidazole], the negative-log IC50 (pIC50) was 8.50.

`CC(C)Oc1ccc2c(c1)nc(-c1ccc(OC3CCCN(C)CC3)cc1Cl)n2Cc1ccccc1` (single isomer, unassigned) [Example A10, 1-benzyl-2-(2-chloro-4-((1-methylazepan-4-yl)oxy)phenyl)-5-isopropoxy-1H-benzo[d]imidazole] gave a negative-log IC50 (pIC50) of 8.70. Against the preceding compound, the pIC50 is 0.20 log units higher.

Compound `CN1CCCC1CCOc1ccc(-c2nc3c(OC4(C)CC4)ncnc3n2Cc2ccccc2)c(Cl)c1` (single isomer, unassigned) [Example D3, 9-benzyl-8-(2-chloro-4-(2-(1-methylpyrrolidin-2-yl)ethoxy)phenyl)-6-(1-methylcyclopropoxy)-9H-purine] had a pIC50 of 8.20.

In turn, `CN1CCCC1CCOc1ccc(-c2nc3c(OC4(C)CC4)ncnc3n2Cc2ccccc2)c(Cl)c1` (single isomer, unassigned) [Example D4, 9-benzyl-8-(2-chloro-4-(2-(1-methylpyrrolidin-2-yl)ethoxy)phenyl)-6-(1-methylcyclopropoxy)-9H-purine] gave a negative-log IC50 (pIC50) of 8.30.

Turning to `CN1CCCC(Oc2ccc(-c3nc4c(OC5(C)CC5)ncnc4n3Cc3ccccc3)c(Cl)c2)CC1` (single isomer, unassigned) [Example D13, 9-benzyl-8-(2-chloro-4-((1-methylazepan-4-yl)oxy)phenyl)-6-(1-methylcyclopropoxy)-9H-purine], the pIC50 is 8.60.

`CN1CCCC(Oc2ccc(-c3nc4c(OC5(C)CC5)ncnc4n3Cc3ccccc3)c(Cl)c2)CC1` (single isomer, unassigned) [Example D14, 9-benzyl-8-(2-chloro-4-((1-methylazepan-4-yl)oxy)phenyl)-6-(1-methylcyclopropoxy)-9H-purine] gave a negative logarithm of the IC50 (pIC50) of 8.70. The pIC50 values of the last two compounds are within 0.2 log units of each other.

As to `CC(Cc1ccccn1)n1c(-c2ccc(OCCN3CCNCC3)cc2Cl)nc2c(OC3(C)CC3)ncnc21` (single isomer, unassigned) [Example S7, 8-(2-chloro-4-(2-(piperazin-1-yl)ethoxy)phenyl)-6-(1-methylcyclopropoxy)-9-(1-(pyridin-2-yl)propan-2-yl)-9H-purine], the negative-log IC50 (pIC50) was 7.80. This pIC50 is 0.90 log units lower than that of the compound before.

As for `CC(Cc1ccccn1)n1c(-c2ccc(OCCN3CCNCC3)cc2Cl)nc2c(OC3(C)CC3)ncnc21` (single isomer, unassigned) [Example S8, 8-(2-chloro-4-(2-(piperazin-1-yl)ethoxy)phenyl)-6-(1-methylcyclopropoxy)-9-(1-(pyridin-2-yl)propan-2-yl)-9H-purine], the pIC50 is 6.50.

Consider `Cc1ccnc(Cn2c(-c3ccc(OCC(F)CO)cc3Cl)nc3c(OC4(C)CC4)ncnc32)c1` (single isomer, unassigned) [Example T109, 3-(3-chloro-4-(6-(1-methylcyclopropoxy)-9-((4-methylpyridin-2-yl)methyl)-9H-purin-8-yl)phenoxy)-2-fluoropropan-1-ol], for which the negative logarithm of the IC50 (pIC50) was 8.20. Against the preceding compound, the pIC50 is 1.70 log units higher.

With `Cc1ccnc(Cn2c(-c3ccc(OCC(F)CO)cc3Cl)nc3c(OC4(C)CC4)ncnc32)c1` (single isomer, unassigned) [Example T110, 3-(3-chloro-4-(6-(1-methylcyclopropoxy)-9-((4-methylpyridin-2-yl)methyl)-9H-purin-8-yl)phenoxy)-2-fluoropropan-1-ol], the pIC50 was 8.30.

With `Cc1ccnc(Cn2c(-c3ccc(OC(C)CO)cc3Cl)nc3c(OC4(C)CC4)ncnc32)c1` (single isomer, unassigned) [Example T126, 2-(3-chloro-4-(6-(1-methylcyclopropoxy)-9-((4-methylpyridin-2-yl)methyl)-9H-purin-8-yl)phenoxy)propan-1-ol], the pIC50 is 8.50.

Consider `Cc1ccnc(Cn2c(-c3ccc(OC(C)CO)cc3Cl)nc3c(OC4(C)CC4)ncnc32)c1` (single isomer, unassigned) [Example T127, 2-(3-chloro-4-(6-(1-methylcyclopropoxy)-9-((4-methylpyridin-2-yl)methyl)-9H-purin-8-yl)phenoxy)propan-1-ol], for which the negative-log IC50 (pIC50) was 8.40.

With `Cc1ccnc(Cn2c(-c3ccc(C4CCC(=O)N4)cc3Cl)nc3c(OC4(C)CC4)ncnc32)c1` (single isomer, unassigned) [Example T172, 5-(3-chloro-4-(6-(1-methylcyclopropoxy)-9-((4-methylpyridin-2-yl)methyl)-9H-purin-8-yl)phenyl)pyrrolidin-2-one], the negative logarithm of the IC50 (pIC50) was 8.10.

In turn, `Cc1ccnc(Cn2c(-c3ccc(C4CCC(=O)N4)cc3Cl)nc3c(OC4(C)CC4)ncnc32)c1` (single isomer, unassigned) [Example T173, 5-(3-chloro-4-(6-(1-methylcyclopropoxy)-9-((4-methylpyridin-2-yl)methyl)-9H-purin-8-yl)phenyl)pyrrolidin-2-one] had a negative-log IC50 (pIC50) of 7.80.

In the case of `Cc1ccnc(Cn2c(-c3ccc(C4CNC(=O)C4)cc3Cl)nc3c(OC4(C)CC4)ncnc32)c1` (single isomer, unassigned) [Example T174, 4-(3-chloro-4-(6-(1-methylcyclopropoxy)-9-((4-methylpyridin-2-yl)methyl)-9H-purin-8-yl)phenyl)pyrrolidin-2-one], the negative-log IC50 (pIC50) was 8.00.

In turn, `Cc1ccnc(Cn2c(-c3ccc(C4CNC(=O)C4)cc3Cl)nc3c(OC4(C)CC4)ncnc32)c1` (single isomer, unassigned) [Example T175, 4-(3-chloro-4-(6-(1-methylcyclopropoxy)-9-((4-methylpyridin-2-yl)methyl)-9H-purin-8-yl)phenyl)pyrrolidin-2-one] showed a negative logarithm of the IC50 (pIC50) of 8.10.

As to `Cc1cnc(Cn2c(-c3ccc(OC4CCCNCC4)cc3Cl)nc3c(OC4(C)CC4)ncnc32)s1` (single isomer, unassigned) [Example T242, 2-((8-(4-(azepan-4-yloxy)-2-chlorophenyl)-6-(1-methylcyclopropoxy)-9H-purin-9-yl)methyl)-5-methylthiazole], the negative-log IC50 (pIC50) was 8.30.

`Cc1cnc(Cn2c(-c3ccc(OC4CCCNCC4)cc3Cl)nc3c(OC4(C)CC4)ncnc32)s1` (single isomer, unassigned) [Example T243, 2-((8-(4-(azepan-4-yloxy)-2-chlorophenyl)-6-(1-methylcyclopropoxy)-9H-purin-9-yl)methyl)-5-methylthiazole] gave a negative-log IC50 (pIC50) of 7.80. This pIC50 lies 0.50 log units lower than the previous one.

`CC(CCOc1ccc(-c2nc3c(OC4(C)CC4)ncnc3n2Cc2cccc(F)c2F)c(Cl)c1)C(=O)O` (single isomer, unassigned) [Example T261, 4-(3-chloro-4-(9-(2,3-difluorobenzyl)-6-(1-methylcyclopropoxy)-9H-purin-8-yl)phenoxy)-2-methylbutanoic acid]: the negative logarithm of the IC50 (pIC50) is 8.00. Against the preceding compound, the pIC50 is 0.20 log units higher.

Regarding `CC(CCOc1ccc(-c2nc3c(OC4(C)CC4)ncnc3n2Cc2cccc(F)c2F)c(Cl)c1)C(=O)O` (single isomer, unassigned) [Example T262, 4-(3-chloro-4-(9-(2,3-difluorobenzyl)-6-(1-methylcyclopropoxy)-9H-purin-8-yl)phenoxy)-2-methylbutanoic acid], the pIC50 is 8.40. Against the preceding compound, the pIC50 is 0.40 log units higher.

Compound `CC(CCOc1ccc(-c2nc3c(OC4(C)CC4)ncnc3n2Cc2c(F)cccc2F)c(Cl)c1)C(=O)O` (single isomer, unassigned) [Example T263, 4-(3-chloro-4-(9-(2,6-difluorobenzyl)-6-(1-methylcyclopropoxy)-9H-purin-8-yl)phenoxy)-2-methylbutanoic acid] gave a negative-log IC50 (pIC50) of 8.20.
